{"sequences": {"note": "Chains of the proteins cited; added tags and fusions are not shown. Lines headed by an entry give the natural chain unless they say otherwise; changes in a name come on top.", "UniProt P23458": "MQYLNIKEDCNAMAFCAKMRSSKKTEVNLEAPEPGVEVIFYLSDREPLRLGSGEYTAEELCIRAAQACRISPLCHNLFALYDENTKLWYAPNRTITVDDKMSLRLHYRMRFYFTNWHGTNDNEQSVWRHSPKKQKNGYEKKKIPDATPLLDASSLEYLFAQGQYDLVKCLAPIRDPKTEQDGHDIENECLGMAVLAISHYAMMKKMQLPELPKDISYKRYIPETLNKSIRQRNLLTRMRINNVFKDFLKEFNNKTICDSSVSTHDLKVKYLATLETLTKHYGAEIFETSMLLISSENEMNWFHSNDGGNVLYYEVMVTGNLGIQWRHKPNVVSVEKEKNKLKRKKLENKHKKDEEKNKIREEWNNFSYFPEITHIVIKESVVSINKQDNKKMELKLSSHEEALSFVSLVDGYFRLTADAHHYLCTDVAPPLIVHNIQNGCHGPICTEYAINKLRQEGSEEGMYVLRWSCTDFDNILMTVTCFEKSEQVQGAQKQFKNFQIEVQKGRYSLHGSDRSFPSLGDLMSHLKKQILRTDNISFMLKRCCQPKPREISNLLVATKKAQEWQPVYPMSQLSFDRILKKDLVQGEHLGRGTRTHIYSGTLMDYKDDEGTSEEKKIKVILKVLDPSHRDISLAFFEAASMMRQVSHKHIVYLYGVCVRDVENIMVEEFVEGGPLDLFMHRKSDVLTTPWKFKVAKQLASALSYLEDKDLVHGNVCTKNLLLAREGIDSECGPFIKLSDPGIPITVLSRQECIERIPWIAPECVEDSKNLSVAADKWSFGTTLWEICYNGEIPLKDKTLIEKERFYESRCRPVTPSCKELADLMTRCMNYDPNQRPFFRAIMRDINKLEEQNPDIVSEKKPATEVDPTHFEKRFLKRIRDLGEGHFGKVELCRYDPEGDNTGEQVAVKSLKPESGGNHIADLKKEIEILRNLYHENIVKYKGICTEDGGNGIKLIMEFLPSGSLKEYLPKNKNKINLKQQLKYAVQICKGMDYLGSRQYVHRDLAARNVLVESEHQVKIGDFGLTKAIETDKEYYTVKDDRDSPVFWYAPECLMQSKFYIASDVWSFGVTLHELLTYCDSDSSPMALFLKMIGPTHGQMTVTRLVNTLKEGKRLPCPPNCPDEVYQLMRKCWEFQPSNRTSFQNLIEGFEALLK"}, "source": "BindingDB's records for doi:10.1016/j.chembiol.2011.01.012", "about": "(University of Luxembourg, 2011)", "target": "Tyrosine-protein kinase JAK1 (Homo sapiens, UniProt P23458)", "assay": "Enzyme Assay", "conditions": "pH 7.5; 30 °C", "data": [{"smiles": "CC(C)(C)c1nc2c3ccc(F)cc3c3c(=O)[nH]ccc3c2[nH]1", "note": "[Jak Inhibitor 1]", "values": [{"measurement": "IC50", "value": 5.2, "unit": "nM"}]}]}
